Assay results published in ChEMBL document CHEMBL1126266, “Dopaminergic and serotonergic activities of imidazoquinolinones and related compounds” (J Med Chem, 1992).

Protein sequences, listed by entry. Tags and fused reporters are not part of them.
UniProt P61169, whole entry: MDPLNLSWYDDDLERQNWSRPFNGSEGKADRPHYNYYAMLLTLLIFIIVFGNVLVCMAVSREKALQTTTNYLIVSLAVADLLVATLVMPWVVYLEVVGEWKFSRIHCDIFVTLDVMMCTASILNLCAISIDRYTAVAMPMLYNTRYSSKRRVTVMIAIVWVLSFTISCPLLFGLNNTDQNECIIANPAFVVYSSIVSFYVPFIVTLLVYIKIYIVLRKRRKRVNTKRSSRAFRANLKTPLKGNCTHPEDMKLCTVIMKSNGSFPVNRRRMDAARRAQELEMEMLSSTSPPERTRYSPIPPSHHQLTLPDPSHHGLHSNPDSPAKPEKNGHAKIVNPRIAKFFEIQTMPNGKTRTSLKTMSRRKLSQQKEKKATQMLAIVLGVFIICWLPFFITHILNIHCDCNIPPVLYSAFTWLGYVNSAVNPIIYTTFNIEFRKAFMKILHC

Biological target: D(2) dopamine receptor (Rattus norvegicus, UniProt P61169)
Assay: Ability to displace [3H]raclopride from dopamine receptor D2 in rat striatal homogenates.
In short: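 Rat striatal homogenate (1:300) incubated with [3H]raclopride (80 Ci/mmol) 1 h at room temperature. Filtered over PEI-pretreated filters, rinsed with 50 mM Tris pH 7.4, counted by liquid scintillation. Nonspecific binding with 1 μM haloperidol. IC50 by log-probit analysis from at least four concentrations in triplicate; Ki calculated from IC50.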

## CN1CCc2cccc3c2[C@H]1Cc1ccc(O)c(O)c1-3 [APOMORPHINE]
  Ki: 46 nM
